From patent US20250176553A1, “SOLUTION FOR […] AND METHOD OF PRODUCING THEREOF” (OCT, Inc., priority 2022, published 2025)

System: Streptococcus mutans biofilms
Conditions: pH 2.7; individual samples 1-6; 590 nm; 24 hours culture
Text: FIGS. 3 to 6 show the experimental results in which Streptococcus mutans strains are actually used. Streptococcus mutans is a facultative anaerobe and a gram-positive streptococcus. It produces insoluble, sticky glucans that stick to tooth surfaces. It is one of the bacteria that mainly cause dental caries. THB (TODD-HEWITT BROTH) supplemented with 2% (w/v) sucrose was used as the medium. Sucrose is a sugar composed of the monosaccharides glucose and fructose with an α-1,2-glycosidic linkage and one of the disaccharides. THB manufactured by Becton, Dickinson and Company was used. For sucrose, “CASRN” manufactured by FUJIFILM Wako Pure Chemical Corporation was used. The plate used for culture was a Thermo Scientific Nunclon Delta Surface 96 well. The incubator used was a Panasonic multi-gas incubator MCO-5MUV-PJ. Culturing was conducted at 37° C. under an atmosphere of 5% CO2 gas, 5% O2 gas and 90% N2 gas.
Devices and the like used to measure residual biofilms are described below. […]
Life Technologies EVOS XL Core was used as the microscope for photography. […] The data processing software was “SF6” and the absorbance wavelength was 590 nm. […]
Crystal Violet was then extracted with 100 μL of 99.5% ethanol (FUJIFILM Wako Pure Chemical Corporation), and the absorbance was measured at a wavelength of 590 nm using an absorption spectrometer grating microplate reader.

SMILES: [2H]OS(=O)(=O)O[2H] [deuterated sulfuric acid (D2SO4)]
- Absorbance: 0.808
